{
  "sequences": {"note": "The chains behind the UniProt entries cited, without tags or fusion partners. Residues count along the entry.", "UniProt P00742, 41-179 limits assumed": "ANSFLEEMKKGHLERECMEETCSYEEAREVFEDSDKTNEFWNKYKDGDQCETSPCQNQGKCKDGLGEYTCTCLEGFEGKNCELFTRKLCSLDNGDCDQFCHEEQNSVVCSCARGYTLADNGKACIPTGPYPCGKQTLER", "UniProt P00742, 235-488 limits assumed": "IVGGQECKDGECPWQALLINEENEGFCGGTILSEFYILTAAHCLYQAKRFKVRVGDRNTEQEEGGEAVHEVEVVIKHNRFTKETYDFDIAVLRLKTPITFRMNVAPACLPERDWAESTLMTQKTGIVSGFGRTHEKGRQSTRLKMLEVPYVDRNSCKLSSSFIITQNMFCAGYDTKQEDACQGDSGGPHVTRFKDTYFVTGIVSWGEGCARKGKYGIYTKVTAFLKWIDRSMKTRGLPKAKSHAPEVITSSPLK"},
  "source": "patent US9989532B2",
  "about": "“Methods and compositions for detecting coagulation inhibitors” (The University of North Carolina at Chapel Hill, priority 2013, dated 2018)",
  "key": {"a2M-Xa": {"target": "a2M-Xa (Homo sapiens, UniProt P00742)", "assay": "substrate cleavage by a2M-Xa (factor Xa caged in alpha-2-macroglobulin)", "type": "biochemical", "set-up": "Factor Xa was purchased from Enzyme Research Labs; host or cells: no expression host: complex formed in vitro from purchased factor Xa and a2M purified from human plasma, then purified on heparin Sepharose and Q-Sepharose", "conditions": "FIG. 2; no inhibitor", "description": "Substrate cleavage in the presence of test sample is measured for all four test conditions.\nThere are any number of substrates for thrombin and factor Xa and other proteases as described herein that can be used in the methods of this invention. In some embodiments, the substrate is a chromogenic substrate, which can be a para-nitroanalide synthetic substrate. […]\n0.5 mM of para-nitroanilide synthetic substrate (Pefachrome FXa) was added and the rate of substrate cleavage determined by appearance of yellow color characteristic of the cleaved substrate. […]\nThe rates of substrate cleavage were converted to concentrations using measured Km and kcat values determined as previously described (Joost et al. “Inhibition of human blood coagulation factor Xa by alpha-2-macroglobulin” Biochemistry 26:5932-5937 (1987) doi: 10.1021/bi00392a053) (FIGS. 1-5)."}, "mice": {"tested_on": "mice", "assay": "saphenous vein injury bleeding time in mice", "type": "in vivo", "conditions": "FIG. 6; mouse, rivaroxaban 160 μg/kg followed by a2M-Xa 2.3 nmol/kg", "description": "FIG. 6. In normal mice, an injury to the saphenous vein in the leg will stop bleeding in just over 1 minute. Administration of dabigatran to a normal mouse prolongs bleeding such that the same injury requires more than 2 minutes to stop bleeding. Administration of dabigatran followed by administration of a2M-IIa restores the normal bleeding time of a little over 1 minute. Similarly, administration of rivaroxaban to a normal mouse prolongs bleeding such that the same injury requires almost 2 minutes to stop bleeding. Administration of rivaroxaban followed by administration of a2M-Xa restores the normal bleeding time of about 1 minute.\nMice were administered 7 μg/kg dabigatran which was designed to produce a plasma level of 65 ng/mL (140 nM). Dabigatran concentration assumes complete recovery and 35% bound to plasma proteins (Stangier and Clemens. “Pharmacology, pharmacokinetics, and pharmacodynamics of dabigatran etexilate, an oral direct thrombin inhibitor” Clin Appl Thromb Hemost. 15 Suppl 1:9S-16S (2009) doi: 10.1177/1076029609343004). The peak plasma level of dabigatran in healthy human volunteers was 150 ng/mL (van Ryn et al. “Dabigatran etexilate—a novel, reversible, oral direct thrombin inhibitor: interpretation of coagulation assays and reversal of anticoagulant activity” Thromb Haemost. 103:1116-1127 (2010) doi:10.1160/TH09-11-0758). […]"}, "antithrombin/heparin": {"tested_on": "antithrombin/heparin", "assay": "inactivation by antithrombin in the presence of heparin", "type": "biochemical", "conditions": "thrombin or factor Xa in complex with a2M", "description": "Varied concentrations of thrombin and factor Xa were titrated against a2M to determine the ratio of proteins that gave optimal incorporation. Thrombin or factor Xa were incubated with a2M for 2 hours at 37° C., Aliquots of the titrated mixtures were incubated with antithrombin in the presence of heparin."}},
  "data": [
    {"substance": "a2M-Xa: factor Xa caged in alpha-2-macroglobulin", "values": [
      {"measurement": "activity of the purified complex (cleavage of synthetic substrate)", "setting": "a2M-Xa", "result": "active"},
      {"measurement": "bleeding time after reversal", "setting": "mice", "result": "about 1 minute"},
      {"measurement": "inactivation by antithrombin/heparin", "setting": "antithrombin/heparin", "result": "protected from inactivation"}
    ]}
  ]
}
